Measured values as given in patent publication US20140072613A1, “Compositions and Methods for Treating Cutaneous Scarring” (priority 2012, published 2014).

The chains behind the UniProt entries cited, without tags or fusion partners. Where a name states a change or a piece, a line headed by the entry shows the natural chain unless it says otherwise.
UniProt P06239: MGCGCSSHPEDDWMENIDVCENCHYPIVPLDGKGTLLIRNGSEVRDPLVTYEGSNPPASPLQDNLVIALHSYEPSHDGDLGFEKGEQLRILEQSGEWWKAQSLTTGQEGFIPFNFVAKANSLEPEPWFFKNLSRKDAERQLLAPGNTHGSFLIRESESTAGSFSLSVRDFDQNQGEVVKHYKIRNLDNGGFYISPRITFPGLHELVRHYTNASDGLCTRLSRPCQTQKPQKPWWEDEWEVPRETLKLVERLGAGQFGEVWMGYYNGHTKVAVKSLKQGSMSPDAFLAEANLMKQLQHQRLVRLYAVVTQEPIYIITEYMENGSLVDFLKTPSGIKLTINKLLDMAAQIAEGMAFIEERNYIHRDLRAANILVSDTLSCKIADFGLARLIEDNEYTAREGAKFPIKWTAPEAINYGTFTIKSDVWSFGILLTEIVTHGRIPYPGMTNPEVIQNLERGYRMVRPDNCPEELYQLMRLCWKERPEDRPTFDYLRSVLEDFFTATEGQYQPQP

Key:
Format in all cases: biochemical
266 human kinases [1] = target: T1, 266 human kinases (Homo sapiens, UniProt Q7L7X3); settings: TAO1(h); 100 μM
T1 sequence (Q7L7X3 1-1001): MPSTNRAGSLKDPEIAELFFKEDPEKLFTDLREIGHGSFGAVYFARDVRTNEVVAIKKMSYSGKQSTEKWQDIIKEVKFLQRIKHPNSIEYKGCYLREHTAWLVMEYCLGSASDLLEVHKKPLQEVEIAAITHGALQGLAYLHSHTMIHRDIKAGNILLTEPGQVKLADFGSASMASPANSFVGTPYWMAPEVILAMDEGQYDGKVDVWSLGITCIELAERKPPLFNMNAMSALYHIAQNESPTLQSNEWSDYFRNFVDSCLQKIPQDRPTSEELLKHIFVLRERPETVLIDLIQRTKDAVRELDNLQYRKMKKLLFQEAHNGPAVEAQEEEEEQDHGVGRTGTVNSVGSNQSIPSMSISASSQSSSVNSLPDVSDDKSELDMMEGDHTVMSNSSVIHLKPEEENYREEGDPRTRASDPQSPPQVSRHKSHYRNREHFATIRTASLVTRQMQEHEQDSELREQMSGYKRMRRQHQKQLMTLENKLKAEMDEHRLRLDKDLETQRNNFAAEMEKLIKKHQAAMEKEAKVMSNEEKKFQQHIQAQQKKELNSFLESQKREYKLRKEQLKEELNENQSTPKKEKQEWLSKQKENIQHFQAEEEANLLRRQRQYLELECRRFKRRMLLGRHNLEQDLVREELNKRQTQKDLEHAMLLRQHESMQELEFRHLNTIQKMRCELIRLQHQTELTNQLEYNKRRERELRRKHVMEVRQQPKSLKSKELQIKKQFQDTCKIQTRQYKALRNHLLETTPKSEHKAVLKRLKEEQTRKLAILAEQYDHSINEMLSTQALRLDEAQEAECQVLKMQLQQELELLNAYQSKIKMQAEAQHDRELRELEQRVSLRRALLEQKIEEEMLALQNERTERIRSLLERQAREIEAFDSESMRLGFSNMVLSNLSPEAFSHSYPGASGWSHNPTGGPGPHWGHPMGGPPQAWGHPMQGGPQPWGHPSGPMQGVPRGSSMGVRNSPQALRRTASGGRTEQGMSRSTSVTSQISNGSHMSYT
How it was run: (§1)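 Radiometric filter-binding format: a positively charged substrate takes up radiolabelled phosphate from ATP unless the kinase is inhibited, then is captured on a negatively charged filter membrane. Counts from scintillation are expressed relative to a 100% activity control.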

266 human kinases [2] = target: 266 human kinases (Homo sapiens, UniProt P06239); settings: Lck(h); 100 μM
How it was run: as §1

266 human kinases [3] = target: T2, 266 human kinases (Homo sapiens, UniProt Q8IWQ3); settings: BrSK2(h); 100 μM
T2 sequence (Q8IWQ3 1-736): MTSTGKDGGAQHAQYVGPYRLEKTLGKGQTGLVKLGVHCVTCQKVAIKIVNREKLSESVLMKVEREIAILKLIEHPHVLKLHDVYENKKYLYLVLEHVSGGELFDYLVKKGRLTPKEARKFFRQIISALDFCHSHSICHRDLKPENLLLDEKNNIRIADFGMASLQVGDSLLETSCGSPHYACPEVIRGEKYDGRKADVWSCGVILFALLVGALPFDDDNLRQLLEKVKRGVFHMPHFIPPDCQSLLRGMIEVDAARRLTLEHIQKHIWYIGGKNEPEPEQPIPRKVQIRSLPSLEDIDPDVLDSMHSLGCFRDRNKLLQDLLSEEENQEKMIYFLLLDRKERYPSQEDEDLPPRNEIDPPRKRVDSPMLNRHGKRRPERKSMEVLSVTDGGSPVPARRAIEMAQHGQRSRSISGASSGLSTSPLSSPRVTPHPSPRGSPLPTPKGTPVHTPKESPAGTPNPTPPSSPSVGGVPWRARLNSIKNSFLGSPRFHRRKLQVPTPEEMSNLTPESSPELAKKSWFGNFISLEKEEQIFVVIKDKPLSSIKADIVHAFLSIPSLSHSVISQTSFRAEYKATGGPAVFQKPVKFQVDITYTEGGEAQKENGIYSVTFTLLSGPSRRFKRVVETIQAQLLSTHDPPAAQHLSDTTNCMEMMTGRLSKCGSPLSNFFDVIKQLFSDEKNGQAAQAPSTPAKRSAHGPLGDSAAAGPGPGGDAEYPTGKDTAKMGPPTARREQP
How it was run: as §1

266 human kinases [4] = target: T3, 266 human kinases (Homo sapiens, UniProt O15111); settings: IKKα(h); 100 μM
T3 sequence (O15111 1-745): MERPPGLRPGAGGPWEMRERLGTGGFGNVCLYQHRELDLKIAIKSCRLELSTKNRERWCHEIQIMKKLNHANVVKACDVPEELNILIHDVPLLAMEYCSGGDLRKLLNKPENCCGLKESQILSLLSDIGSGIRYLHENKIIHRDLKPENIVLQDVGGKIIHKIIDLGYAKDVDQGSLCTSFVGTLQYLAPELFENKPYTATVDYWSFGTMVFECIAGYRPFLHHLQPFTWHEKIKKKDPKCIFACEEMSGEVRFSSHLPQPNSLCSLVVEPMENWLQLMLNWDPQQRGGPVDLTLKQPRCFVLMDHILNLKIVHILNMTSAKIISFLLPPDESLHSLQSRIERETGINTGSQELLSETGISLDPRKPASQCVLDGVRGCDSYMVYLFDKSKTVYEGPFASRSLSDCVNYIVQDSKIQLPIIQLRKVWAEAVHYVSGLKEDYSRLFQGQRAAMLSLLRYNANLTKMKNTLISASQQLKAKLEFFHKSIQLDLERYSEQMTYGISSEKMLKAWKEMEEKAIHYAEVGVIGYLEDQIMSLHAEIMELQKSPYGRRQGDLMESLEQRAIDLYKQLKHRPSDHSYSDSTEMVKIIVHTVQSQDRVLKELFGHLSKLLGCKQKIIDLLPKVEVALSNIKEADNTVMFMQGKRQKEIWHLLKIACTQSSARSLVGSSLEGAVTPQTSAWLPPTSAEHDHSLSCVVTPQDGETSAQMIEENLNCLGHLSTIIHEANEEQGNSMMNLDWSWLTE
How it was run: as §1

266 human kinases [5] = target: 266 human kinases (Homo sapiens, UniProt P00519, H396P); settings: Abl(H8396P)(h); 100 μM
How it was run: as §1

Q: What does the source list for “YARAAARQARAKALNRQLGVA (mammal) [MMI-0200]”?
A: % activity (266 human kinases [1]): 105%; % activity (266 human kinases [2]): 113%; % activity (266 human kinases [3]): 102%; % activity (266 human kinases [4]): 104%; % activity (266 human kinases [5]): 121%
